# Reference: patent publication US20060167229A1, “Biologically active peptide conjugates” (priority 2002, published 2006)
# Assays:
# [1] = test system: anti-SRBC antibody; assay: Sheep Red Blood Cell (SRBC) hemolysis test, antibody formation; type: in vivo, BALB/c mice; settings: healthy mice, SRBC day 12 (IFN-γ, IL-2 3×10^5 IU/kg/day), saline 32 ± 7
# Experimental: (§1) Sheep red blood cells (SRBC) were prepared by collecting blood from cervical vein and put into a sterile flask with glass beads. The flask was shaken for 3 minutes and the blood then mixed with Alsever solution (glucose 2.05 g, NaCl 0.4 g, […] 0.8 g, adjust to 100 ml with distilled water) and stored at 4° C. Immediately before use, samples were centrifuged at 130 g, 5 minutes to collect the SRBC. The cells were washed two times by re-suspension and centrifugation in normal saline. Then the cell pellet was collected by centrifugation at 180 g for 10 minutes and re-suspended in saline to make the final working SRBC suspension, 2% (v/v).
# Complement was prepared by adding 10 volumes of fresh Cavy serum into one volume centrifuge packed SRBC, and then gently shaking for 30 minutes at 4° C. The SRBC was removed by centrifugation at 200 g for 10 minutes. 10 volumes of normal saline were added to obtain the working complement solution.
# The BALB/c mice were randomly divided into the peptide group, IFN group, IL-2 group, and saline group, 10 mice per group. The test substances were administered as described in section 1.1, plus intraperitoneal injection 0.2 ml SRBC per mouse on day 12. On the day after the last test substance administration (day 16), blood was collected from the eye canthus and left at room temperature for one hour for serum exudation. After centrifugation at 200 g for 10 minutes, the serum was diluted by 500 times with normal saline.
# To 1 ml diluted mouse serum of each mouse, 0.5 ml SRBC suspension was added. Ice cold. Then 1 ml working complement solution was added and incubated at 37° C. water bath for 10 minutes. Reactions were terminated by ice cold. Samples were then centrifuged at 200 g for 10 minutes to obtain the supernatant.
# To 1 ml of this supernatant, 3 ml Drabkin solution was added and left at room temperature for 10 minutes. OD540 nm was obtained.
# Reference OD540 nm was obtained by mixing 0.25 ml SRBC suspension with Drabkin solution to 4 ml and placed at room temperature for 10 minutes before OD540 nm was taken.
# Sample serum index=(OD540 nm of test sample÷reference OD540 nm)×500
# [2] = test system: ascitic fluid type liver cancer H22; assay: Survival of mice with transplanted ascitic fluid type liver cancer H22; type: in vivo, BALB/c mice; settings: controls: rhIL-2, rmIFN-γ 3 × 10^5 IU/kg, cyclophosphamide 20 mg/kg; saline 26.2 ± 6.8
# Experimental: Intraperitoneal injection, once per day. […] The cyclophosphamide groups were treated on the next day after transplanting the cancer cells. Treatment of all groups with testing substance lasted for 30 days or until the animal died unless otherwise specified.
# Stock H22 cells were incubated in DMEM/F12 medium supplemented with 10% fetal bovine serum, 37° C./5% CO2 for 72 hrs, then washed 3-4 times with Hank's solution at room temperature. Adjust cell concentration to 1-2×10^9 per litre with Hank's solution. 0.2 ml of the cell suspension was implanted to the abdominal cavity of several BALB/c mice for 6-8 days. The mice were killed by cervical vertebra dislocation. Ascitic fluid of the mice was collected aseptically and the cell concentration adjusted to 1×10^6 per ml with Hank's solution. 0.2 ml of the cell suspension was implanted into the abdominal cavity of healthy mice to generate the H22 carrying mouse model for ascitic fluid type liver cancer. Administration of test substance started as described in section Method 1. Survival data of the mice was recorded. If the animal survived longer than the experiment, the survival days was recorded as the duration of the experiment. […] The survival index was calculated according to the following formula: Survival index=(mean survival days in treatment group−mean survival days of control group)÷mean survival days of control group×100% 4. […]
# [3] = test system: Sheep red blood cells (SRBC); assay: Humoral immunity (SRBC hemolysis index) of mice bearing transplanted B16 melanoma; type: in vivo, C57BL/6 mice; set-up: key: index = (OD540 sample ÷ reference OD540) × 500; settings: controls: rhIL-2, rmIFN-γ 3 × 10^5 IU/kg, cyclophosphamide 20 mg/kg, saline 19.0 ± 9.1
# Experimental: Intraperitoneal injection, once per day. […] Treatment of all groups with testing substance lasted for 30 days or until the animal died unless otherwise specified.
# Stock B16 mouse melanoma cells were incubated in DMEM/F12 medium supplemented with 10% fetal bovine serum, 37° C./5% CO2 for 72 hrs, then washed 3-4 times with Hank's solution. The cell concentration was adjusted to 1×10^5 per ml with Hank's solution and 0.1 ml of the cell suspension was injected via the tail vein into the testing mice to generate the B16 melanoma bearing animal model. Treatment with test substance started as described in section Method 1.
# as §1, with “from the” for “from”, “Then the cell pellet was collected by centrifugation at 180 g for 10 minutes and re-suspended in saline to make the final working SRBC suspension, 2% (v/v).” left out
# Reference OD540 nm was obtained by mixing 0.25 ml SRBC suspension with Drabkin solution to 4 ml and placed at room temperature for 10 minutes before OD540 nm was taken. […] The Pathological Changes were Recorded, and the Numbers of Melanoma Lung Metastasis Foci Were Counted. […]
substance,measurement,setting,value
"IL-2: recombinant human IL (rhIL)-2, Shanghai Huaxin Biotech Inc.; positive control","anti-SRBC antibody formation, X ± SD (Unit)",[1]; peptide 0.5 μg/kg/day i.p. 15 days,71 ± 11 Unit
same,"anti-SRBC antibody formation, X ± SD (Unit)",[1]; peptide 5 μg/kg/day i.p. 15 days,71 ± 11 Unit
same,"anti-SRBC antibody formation, X ± SD (Unit)",[1]; peptide 50 μg/kg/day i.p. 15 days,71 ± 11 Unit
same,"anti-SRBC antibody formation, X ± SD (Unit)",[1]; peptide 500 μg/kg/day i.p. 15 days,71 ± 11 Unit
same,Survival days,[2],13.6 ± 0.5 days
same,Hemolysis index,[3],49.3 ± 24.7
